ChEMBL document CHEMBL2429777, “Synthesis and antibacterial activity evaluation of 2,6-bis(6-substituted-1,2,4-triazolo[3,4-b][1,3,4]thiadiazol-3-yl)pyridine derivatives” (2013)

System: Escherichia coli

## GENTAMICIN
  MIC: 0.5 µg/mL
